Reference: patent US20090099157A1, “TETRAHYDRO-PYRAZOLO-PYRIDINE THIOETHER MODULATORS OF CATHEPSIN S” (priority 2007, published 2009)

The chains behind the UniProt entries cited, without tags or fusion partners. Residues count along the entry.
UniProt P25774, 115-331: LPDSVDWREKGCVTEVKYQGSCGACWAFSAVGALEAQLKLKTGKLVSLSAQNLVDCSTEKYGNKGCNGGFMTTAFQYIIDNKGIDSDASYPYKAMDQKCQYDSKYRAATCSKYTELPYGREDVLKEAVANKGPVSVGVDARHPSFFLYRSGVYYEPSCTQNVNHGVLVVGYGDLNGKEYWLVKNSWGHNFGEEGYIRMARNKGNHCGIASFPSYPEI

Target: Recombinant human cathepsin S (CatS) (Homo sapiens, UniProt P25774)
Experiment: biochemical

Row | Structure (SMILES) | IC50 [nM]
1 | CS(=O)(=O)N1CCc2c(c(-c3ccc(C(F)(F)F)c(SCCN4CCOCC4)c3)nn2CC(O)CN2CCC(O)(c3ccccn3)CC2)C1 (stereo not shown) [Example 725, 1-{2-Hydroxy-3-[5-(methylsulfonyl)-3-{3-[(2-morpholin-4-ylethyl)sulfanyl]-4-(trifluoromethyl)phenyl}-4,5,6,7-tetrahydro-1H-pyrazolo[4,3-c]pyridin-1-yl]propyl}-4-pyridin-2-ylpiperidin-4-ol] | 170
2 | O=C(CSc1cc(-c2nn(CC(O)CN3CCC(C(=O)N4CCCC4)CC3)c3c2CNCC3)ccc1C(F)(F)F)N1CCOCC1 (stereo not shown) [Example 495, 1-(3-{3-[(2-Morpholin-4-yl-2-oxoethyl)sulfanyl]-4-(trifluoromethyl)phenyl}-4,5,6,7-tetrahydro-1H-pyrazolo[4,3-c]pyridin-1-yl)-3-[4-(pyrrolidin-1-ylcarbonyl)piperidin-1-yl]propan-2-ol] | 1670
3 | CS(=O)(=O)N1CCc2c(c(-c3ccc(C(F)(F)F)c(SCC(=O)N4CCOCC4)c3)nn2CC(O)CN2CCC(C(=O)N3CCCC3)CC2)C1 (stereo not shown) [Example 262, 1-[5-(Methylsulfonyl)-3-{3-[(2-morpholin-4-yl-2-oxoethyl)sulfanyl]-4-(trifluoromethyl)phenyl}-4,5,6,7-tetrahydro-1H-pyrazolo[4,3-c]pyridin-1-yl]-3-[4-(pyrrolidin-1-ylcarbonyl)piperidin-1-yl]propan-2-ol] | 40
4 | CS(=O)(=O)N1CCc2c(c(-c3ccc(C(F)(F)F)c(SCC(=O)NC4CCCC4)c3)nn2CC(O)CN2CCC(N3CCOCC3)CC2)C1 (stereo not shown) [Example 754, N-Cyclopentyl-2-{[5-{1-[2-hydroxy-3-(4-morpholin-4-ylpiperidin-1-yl)propyl]-5-(methylsulfonyl)-4,5,6,7-tetrahydro-1H-pyrazolo[4,3-c]pyridin-3-yl}-2-(trifluoromethyl)phenyl]sulfanyl}acetamide] | 510
5 | CS(=O)(=O)N1CCc2c(c(-c3ccc(C(F)(F)F)c(SCCNC(=O)C4CCCNC4)c3)nn2CC(O)CN2CCC(N3CCCC3=O)CC2)C1 (stereo not shown) [Example 125, Piperidine-3-carboxylic acid {2-[5-(1-{2-hydroxy-3-[4-(2-oxo-pyrrolidin-1-yl)-piperidin-1-yl]-propyl}-5-methanesulfonyl-4,5,6,7-tetrahydro-1H-pyrazolo[4,3-c]pyridin-3-yl)-2-trifluoromethyl-phenylsulfanyl]-ethyl}-amide] | 420
6 | CS(=O)(=O)N1CCc2c(c(-c3ccc(C(F)(F)F)c(SCCN4CCc5ccccc5C4)c3)nn2CCCN2CCC(N3CCCC3=O)CC2)C1 [Example 44, 1-{1-[3-(3-{3-[2-(3,4-Dihydro-1H-isoquinolin-2-yl)-ethylsulfanyl]-4-trifluoromethyl-phenyl}-5-methanesulfonyl-4,5,6,7-tetrahydro-pyrazolo[4,3-c]pyridin-1-yl)-propyl]-piperidin-4-yl}-pyrrolidin-2-one] | 500
7 | NC(=O)NC1CCN(CC(O)Cn2nc(-c3ccc(C(F)(F)F)c(SCCN4CCC(F)(F)C4)c3)c3c2CCNC3)CC1 (stereo not shown) [Example 352, 1-[1-(3-{3-[3-{[2-(3,3-Difluoropyrrolidin-1-yl)ethyl]sulfanyl}-4-(trifluoromethyl)phenyl]-4,5,6,7-tetrahydro-1H-pyrazolo[4,3-c]pyridin-1-yl}-2-hydroxypropyl)piperidin-4-yl]urea] | 1260
8 | CS(=O)(=O)N1CCc2c(c(-c3ccc(C(F)(F)F)c(SCC(=O)N4CC=C(c5ccccc5)CC4)c3)nn2CC(O)CN2CCC(N3CCCC3=O)CC2)C1 (stereo not shown) [Example 68, 1-{1-[2-Hydroxy-3-(5-methanesulfonyl-3-{3-[2-oxo-2-(4-phenyl-3,6-dihydro-2H-pyridin-1-yl)-ethylsulfanyl]-4-trifluoromethyl-phenyl}-4,5,6,7-tetrahydro-pyrazolo[4,3-c]pyridin-1-yl)-propyl]-piperidin-4-yl}-pyrrolidin-2-one] | 500
9 | CC(C)(C)C1CCN(CCSc2cc(-c3nn(CCCN4CCC(N5CCCC5=O)CC4)c4c3CN(S(C)(=O)=O)CC4)ccc2C(F)(F)F)CC1 [Example 16, 1-{1-[3-(3-{3-[2-(4-tert-Butyl-piperidin-1-yl)-ethylsulfanyl]-4-trifluoromethyl-phenyl}-5-methanesulfonyl-4,5,6,7-tetrahydro-pyrazolo[4,3-c]pyridin-1-yl)-propyl]-piperidin-4-yl}-pyrrolidin-2-one] | 160
10 | CS(=O)(=O)NC1CCN(CC(O)Cn2nc(-c3ccc(C(F)(F)F)c(SCC(=O)N4CCOCC4)c3)c3c2CCNC3)CC1 (stereo not shown) [Example 460, N-{1-[2-Hydroxy-3-(3-{3-[(2-morpholin-4-yl-2-oxoethyl)sulfanyl]-4-(trifluoromethyl)phenyl}-4,5,6,7-tetrahydro-1H-pyrazolo[4,3-c]pyridin-1-yl)propyl]piperidin-4-yl}methanesulfonamide] | 2400
11 | CS(=O)(=O)N1CCc2c(c(-c3ccc(C(F)(F)F)c(SCCN4CCOCC4)c3)nn2CC(O)CN2CCC(C(F)(F)F)CC2)C1 (stereo not shown) [Example 642, 1-[5-(Methylsulfonyl)-3-{3-[(2-morpholin-4-ylethyl)sulfanyl]-4-(trifluoromethyl)phenyl}-4,5,6,7-tetrahydro-1H-pyrazolo[4,3-c]pyridin-1-yl]-3-[4-(trifluoromethyl)piperidin-1-yl]propan-2-ol] | 270
12 | CS(=O)(=O)N1CCc2c(c(-c3ccc(C(F)(F)F)c(SCCN4CCC(F)CC4)c3)nn2C[C@H](O)CN2CCN(c3ncccc3Cl)CC2)C1 [Example 852, (2R)-1-[4-(3-Chloropyridin-2-yl)piperazin-1-yl]-3-{3-[3-{[2-(4-fluoropiperidin-1-yl)ethyl]sulfanyl}-4-(trifluoromethyl)phenyl]-5-(methylsulfonyl)-4,5,6,7-tetrahydro-1H-pyrazolo[4,3-c]pyridin-1-yl}propan-2-ol] | 15
13 | CC1(C)CCCN(CCSc2cc(-c3nn(CCCN4CCC(N5CCCC5=O)CC4)c4c3CN(S(C)(=O)=O)CC4)ccc2C(F)(F)F)C1 [Example 738, 1-[1-(3-{3-[3-{[2-(3,3-Dimethylpiperidin-1-yl)ethyl]sulfanyl}-4-(trifluoromethyl)phenyl]-5-(methylsulfonyl)-4,5,6,7-tetrahydro-1H-pyrazolo[4,3-c]pyridin-1-yl}propyl)piperidin-4-yl]pyrrolidin-2-one] | 140

Second part, the compound after the results:

Row | IC50 [nM] | Structure (SMILES)
14 | 160 | NC(=O)C(=O)N1CCc2c(c(-c3ccc(C(F)(F)F)c(SCCN4CCCC4)c3)nn2C[C@@H](O)CN2CCCCC2)C1 [Example 317, 2-(1-[(2S)-2-Hydroxy-3-piperidin-1-ylpropyl]-3-{3-[(2-pyrrolidin-1-ylethyl)sulfanyl]-4-(trifluoromethyl)phenyl}-1,4,6,7-tetrahydro-5H-pyrazolo[4,3-c]pyridin-5-yl)-2-oxoacetamide]
15 | 60 | CS(=O)(=O)N1CCc2c(c(-c3ccc(C(F)(F)F)c(SCCN4CCCCC4)c3)nn2CC(O)CN2CCC(Oc3ccccn3)CC2)C1 (stereo not shown) [Example 717, 1-[5-(Methylsulfonyl)-3-{3-[(2-piperidin-1-ylethyl)sulfanyl]-4-(trifluoromethyl)phenyl}-4,5,6,7-tetrahydro-1H-pyrazolo[4,3-c]pyridin-1-yl]-3-[4-(pyridin-2-yloxy)piperidin-1-yl]propan-2-ol]
16 | 40 | CS(=O)(=O)N1CCc2c(c(-c3ccc(C(F)(F)F)c(SCCN4CCC(F)CC4)c3)nn2C[C@H](O)CN2CCN(c3ccccc3F)CC2)C1 [Example 807, (2R)-1-[4-(2-Fluorophenyl)piperazin-1-yl]-3-{3-[3-{[2-(4-fluoropiperidin-1-yl)ethyl]sulfanyl}-4-(trifluoromethyl)phenyl]-5-(methylsulfonyl)-4,5,6,7-tetrahydro-1H-pyrazolo[4,3-c]pyridin-1-yl}propan-2-ol]
17 | 140 | CN(C)S(=O)(=O)N1CCc2c(c(-c3ccc(C(F)(F)F)c(SCCN4CCC(F)CC4)c3)nn2C[C@@H](O)CN2CCCCC2)C1 [Example 566, 3-[3-{[2-(4-Fluoropiperidin-1-yl)ethyl]sulfanyl}-4-(trifluoromethyl)phenyl]-1-[(2S)-2-hydroxy-3-piperidin-1-ylpropyl]-N,N-dimethyl-1,4,6,7-tetrahydro-5H-pyrazolo[4,3-c]pyridine-5-sulfonamide]
18 | 200 | N#Cc1ccccc1N1CCN(CC(O)Cn2nc(-c3ccc(C(F)(F)F)c(SCC(=O)N4CCOCC4)c3)c3c2CCNC3)CC1 (stereo not shown) [Example 526, 2-{4-[2-Hydroxy-3-(3-{3-[(2-morpholin-4-yl-2-oxoethyl)sulfanyl]-4-(trifluoromethyl)phenyl}-4,5,6,7-tetrahydro-1H-pyrazolo[4,3-c]pyridin-1-yl)propyl]piperazin-1-yl}benzonitrile]
19 | 230 | CS(=O)(=O)N1CCc2c(c(-c3ccc(C(F)(F)F)c(SCCN4CCCCC4)c3)nn2CC(O)CN2CCCC2)C1 (stereo not shown) [Example 161, 1-[5-(Methylsulfonyl)-3-{3-[(2-piperidin-1-ylethyl)sulfanyl]-4-(trifluoromethyl)phenyl}-4,5,6,7-tetrahydro-1H-pyrazolo[4,3-c]pyridin-1-yl]-3-pyrrolidin-1-ylpropan-2-ol]
20 | 920 | COc1ccccc1N1CCN(CC(O)Cn2nc(-c3ccc(C(F)(F)F)c(SCCN4CCCCC4)c3)c3c2CCNC3)CC1 (stereo not shown) [Example 453, 1-{4-[2-(Methyloxy)phenyl]piperazin-1-yl}-3-(3-{3-[(2-piperidin-1-ylethyl)sulfanyl]-4-(trifluoromethyl)phenyl}-4,5,6,7-tetrahydro-1H-pyrazolo[4,3-c]pyridin-1-yl)propan-2-ol]
21 | 1060 | CC(=O)c1ccc(N2CCN(CC(O)Cn3nc(-c4ccc(C(F)(F)F)c(SCCN5CCCCC5)c4)c4c3CCNC4)CC2)cc1 (stereo not shown) [Example 534, 1-(4-{4-[2-Hydroxy-3-(3-{3-[(2-piperidin-1-ylethyl)sulfanyl]-4-(trifluoromethyl)phenyl}-4,5,6,7-tetrahydro-1H-pyrazolo[4,3-c]pyridin-1-yl)propyl]piperazin-1-yl}phenyl)ethanone]
22 | 1080 | O=C(CO)N1CCc2c(c(-c3ccc(C(F)(F)F)c(SCCN4CCOCC4)c3)nn2CC(O)CN2CCCCC2)C1 (stereo not shown) [Example 238, 1-[5-(Hydroxyacetyl)-3-{3-[(2-morpholin-4-ylethyl)sulfanyl]-4-(trifluoromethyl)phenyl}-4,5,6,7-tetrahydro-1H-pyrazolo[4,3-c]pyridin-1-yl]-3-piperidin-1-ylpropan-2-ol]
